Cyclic peptide permeability, from CycPeptMPDB

Collected by the curators of CycPeptMPDB (Li et al. 2023) from Furukawa et al. 2016, doi:10.1021/acs.jmedchem.6b01246.

PAMPA measures passive passage through an artificial lipid membrane.
Permeability is in 10^-6 cm/s, converted from the database's log10 values; higher is more permeable.

compound	PAMPA (10^-6 cm/s)
CCCC[C@@H]1NC(=O)[C@H](CC(C)C)N(C)C(=O)CN(CCc2cccnc2)C(=O)[C@H](C)NC(=O)CN(CCCCc2ccccc2)C(=O)[C@H]2CCCN2C1=O	2.7
CCCC[C@@H]1NC(=O)[C@H](CC(C)C)N(C)C(=O)CN(CCc2cccnc2)C(=O)[C@H](C)NC(=O)CN(CCN2CCOCC2)C(=O)[C@H]2CCCN2C1=O	0.033
CCCC[C@@H]1NC(=O)[C@H](CC(C)C)N(C)C(=O)CN(CC2CCCCC2)C(=O)[C@H](CC(C)C)NC(=O)CN(CCCOC(C)C)C(=O)[C@H]2CCCN2C1=O	1.7
CCCC[C@@H]1NC(=O)[C@H](CC(C)C)N(C)C(=O)CN(CC2CCOCC2)C(=O)[C@H](Cc2ccc3ccccc3c2)NC(=O)CN(Cc2ccc(Cl)cc2)C(=O)[C@H]2CCCN2C1=O	0.015
CCCC[C@@H]1NC(=O)[C@H](CC(C)C)N(C)C(=O)CN(CCCN2CCCC2=O)C(=O)[C@H](Cc2ccccc2)NC(=O)CN(CCC)C(=O)[C@H]2CCCN2C1=O	0.58
CCCCCN1CC(=O)N(C)[C@@H](CC(C)C)C(=O)N[C@@H](CCCC)C(=O)N2CCC[C@@H]2C(=O)N(Cc2ccccc2Cn2cccn2)CC(=O)N[C@@H](Cc2ccc3ccccc3c2)C1=O	0.016
CCCC[C@@H]1NC(=O)[C@H](CC(C)C)N(C)C(=O)CN(CCCN2CCCC2=O)C(=O)[C@H](Cc2ccc3ccccc3c2)NC(=O)CN(CCC)C(=O)[C@H]2CCCN2C1=O	1.7
CCCC[C@@H]1NC(=O)[C@H](CC(C)C)N(C)C(=O)CN(CCOc2ccccc2)C(=O)[C@H](C)NC(=O)CN(CCCOC(C)C)C(=O)[C@H]2CCCN2C1=O	8.7
CCCC[C@@H]1NC(=O)[C@H](CC(C)C)N(C)C(=O)CN(Cc2ccccc2)C(=O)[C@H](CC(C)C)NC(=O)CN(Cc2ccc3c(c2)OCO3)C(=O)[C@H]2CCCN2C1=O	0.21
CCCC[C@@H]1NC(=O)[C@H](CC(C)C)N(C)C(=O)CN(CCOc2ccccc2)C(=O)[C@H](Cc2ccccc2)NC(=O)CN(CCN2CCOCC2)C(=O)[C@H]2CCCN2C1=O	1.7
CCCC[C@@H]1NC(=O)[C@H](CC(C)C)N(C)C(=O)CN(CCc2cccnc2)C(=O)[C@H](Cc2ccc3ccccc3c2)NC(=O)CN(CCCCc2ccccc2)C(=O)[C@H]2CCCN2C1=O	0.024
CCCCCN1CC(=O)N(C)[C@@H](CC(C)C)C(=O)N[C@@H](CCCC)C(=O)N2CCC[C@@H]2C(=O)N(CCC)CC(=O)N[C@@H](C)C1=O	8.9
CCCC[C@@H]1NC(=O)[C@H](CC(C)C)N(C)C(=O)CN(CC2CCOCC2)C(=O)[C@H](CC(C)C)NC(=O)CN(CC)C(=O)[C@H]2CCCN2C1=O	1.8
CCCC[C@@H]1NC(=O)[C@H](CC(C)C)N(C)C(=O)CN(CCCN2CCCC2=O)C(=O)[C@H](C)NC(=O)CN(CC(C)C)C(=O)[C@H]2CCCN2C1=O	0.024
CCCC[C@@H]1NC(=O)[C@H](CC(C)C)N(C)C(=O)CN(CCc2cccnc2)C(=O)[C@H](Cc2ccc3ccccc3c2)NC(=O)CN(CCC)C(=O)[C@H]2CCCN2C1=O	3.7
CCCC[C@@H]1NC(=O)[C@H](CC(C)C)N(C)C(=O)CN(CC2CCOCC2)C(=O)[C@H](CC(C)C)NC(=O)CN(Cc2ccc3c(c2)OCO3)C(=O)[C@H]2CCCN2C1=O	9.5
CCCCCN1CC(=O)N(C)[C@@H](CC(C)C)C(=O)N[C@@H](CCCC)C(=O)N2CCC[C@@H]2C(=O)N(Cc2ccccc2Cn2cccn2)CC(=O)N[C@@H](CC(C)C)C1=O	2.6
CCCC[C@@H]1NC(=O)[C@H](CC(C)C)N(C)C(=O)CN(CC2CCCCC2)C(=O)[C@H](Cc2ccccc2)NC(=O)CN(CCN2CCOCC2)C(=O)[C@H]2CCCN2C1=O	4.8
CCCC[C@@H]1NC(=O)[C@H](CC(C)C)N(C)C(=O)CN(CCCc2cnn(C)c2)C(=O)[C@H](C)NC(=O)CN(CC)C(=O)[C@H]2CCCN2C1=O	0.047
CCCC[C@@H]1NC(=O)[C@H](CC(C)C)N(C)C(=O)CN(CCCN2CCCC2=O)C(=O)[C@H](Cc2ccccc2)NC(=O)CN(CC(C)C)C(=O)[C@H]2CCCN2C1=O	0.93
CCCC[C@@H]1NC(=O)[C@H](CC(C)C)N(C)C(=O)CN(CCOc2ccccc2)C(=O)[C@H](CC(C)C)NC(=O)CN(CCCCc2ccccc2)C(=O)[C@H]2CCCN2C1=O	0.041
CCCC[C@@H]1NC(=O)[C@H](CC(C)C)N(C)C(=O)CN(CC2CCOCC2)C(=O)[C@H](Cc2ccc3ccccc3c2)NC(=O)CN(CCCCc2ccccc2)C(=O)[C@H]2CCCN2C1=O	0.025

Excerpt, the final 3 entries:

| compound | PAMPA (10^-6 cm/s) |
|---|---|
| CCCC[C@@H]1NC(=O)[C@H](CC(C)C)N(C)C(=O)CN(CCCN2CCCC2=O)C(=O)[C@H](Cc2ccccc2)NC(=O)CN(CC(C)C)C(=O)[C@H]2CCCN2C1=O | 0.93 |
| CCCC[C@@H]1NC(=O)[C@H](CC(C)C)N(C)C(=O)CN(CCOc2ccccc2)C(=O)[C@H](CC(C)C)NC(=O)CN(CCCCc2ccccc2)C(=O)[C@H]2CCCN2C1=O | 0.041 |
| CCCC[C@@H]1NC(=O)[C@H](CC(C)C)N(C)C(=O)CN(CC2CCOCC2)C(=O)[C@H](Cc2ccc3ccccc3c2)NC(=O)CN(CCCCc2ccccc2)C(=O)[C@H]2CCCN2C1=O | 0.025 |

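Conditions beyond the assay type are not listed; see the original paper. Other peptides of the study may be missing here. Peptides that the database sets to -10, its floor, are left out.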